# Measured affinities in a library of Ab-14 light chain variants

Values reported by Li et al. 2023, doi:10.1038/s41467-023-39022-2 (FLAb copy).

Target peptide (SARS-CoV-2 spike, HR2 region): PDVDLGDISGINAS

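Phage display of a naive human antibody library on the peptide gave the parent. This is the validation round: designs drawn from the data on random variants, tested in the same kind of assay. Several design methods are mixed in this list. In AlphaSeq, yeast of one mating type display the scFv and yeast of the other type display the target. After mating in shaken culture at 30 °C for 16 h, diploids were selected and their barcode pairs sequenced. Read counts were normalised to the haploid input and turned into Kd by a linear fit to BCL2-family pairs of known affinity, for each replicate. There are six technical replicates.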

Ab-14 is the parent antibody, in scFv form: VH, then three GGGGS repeats, then VL. The heavy chain is unchanged in all variants.
VH: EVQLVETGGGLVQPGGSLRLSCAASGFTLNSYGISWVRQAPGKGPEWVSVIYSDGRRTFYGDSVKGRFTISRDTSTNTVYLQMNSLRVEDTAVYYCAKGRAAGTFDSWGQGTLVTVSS
VL: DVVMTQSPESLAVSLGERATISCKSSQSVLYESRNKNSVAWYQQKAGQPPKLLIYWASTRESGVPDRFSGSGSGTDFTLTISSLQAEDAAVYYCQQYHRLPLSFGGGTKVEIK

Each variant's VL is given in full. This list holds designs with at most six substitutions. The Kd shown is the geometric mean over detected replicates; a lower Kd is a better binder. An entry "nd" has no value in the source: the pair was not observed among the diploids in any replicate. This suggests poor binding but is not conclusive. Entries are sorted by rising average, undetected variants last. A sequence measured in both rounds can read differently, since the two assays cover different ranges.

* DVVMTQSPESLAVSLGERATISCKSSQSVLYESSNSNSVAWYQQKAGQPPKLLIYWASTQESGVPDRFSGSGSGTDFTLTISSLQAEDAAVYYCQQYHRLPLSFGGGTKVEIK: 91 pM (1 of 6 replicates)
* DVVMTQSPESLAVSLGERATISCKLSQSVLYESRMKNSVAWYQQKAGQPPKLLIYNASTREMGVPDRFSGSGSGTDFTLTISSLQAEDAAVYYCQQYHRLPLSFGGGTKVEIK: 480 pM (6 of 6 replicates)
* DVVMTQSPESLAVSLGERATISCKLPQSVLYESRNKNSVAWYQQKAGQPPKLLIYNASTRLSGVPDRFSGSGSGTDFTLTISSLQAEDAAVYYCQQYHRLPLSFGGGTKVEIK: 550 pM (6 of 6 replicates)
* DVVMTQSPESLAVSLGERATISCKSSQSELTESRNKNSVAWYQQKAGQPPKLLIYDASTRESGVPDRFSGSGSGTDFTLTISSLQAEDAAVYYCQQYWRLPLSFGGGTKVEIK: 630 pM (6 of 6 replicates)
* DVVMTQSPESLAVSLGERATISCKASQEVLMESRNMNSVAWYQQKAGQPPKLLIYNASTREEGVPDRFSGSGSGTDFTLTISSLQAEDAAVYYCQQYHRLPLSFGGGTKVEIK: 690 pM (6 of 6 replicates)
* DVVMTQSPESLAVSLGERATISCKLVQSVLYESRNKNSVAWYQQKAGQPPKLLIYNASTRCSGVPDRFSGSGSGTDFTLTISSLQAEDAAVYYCQQYHRLPLSFGGGTKVEIK: 800 pM (6 of 6 replicates)
* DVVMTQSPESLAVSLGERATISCKFSQSVLYESRNKNSVAWYQQKAGQPPKLLIYNASQRCSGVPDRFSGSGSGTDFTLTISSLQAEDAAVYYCQQYHRLPLSFGGGTKVEIK: 1.1 nM (6 of 6 replicates)
* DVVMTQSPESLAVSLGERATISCKLSQSVEYESRQKNSVAWYQQKAGQPPKLLIYNASTRLSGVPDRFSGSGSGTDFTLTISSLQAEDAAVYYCQQYHRLPLSFGGGTKVEIK: 1.6 nM (6 of 6 replicates)
* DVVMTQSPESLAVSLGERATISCKIGQGVLYESRNKNSVAWYQQKAGQPPKLLIYGASQRWSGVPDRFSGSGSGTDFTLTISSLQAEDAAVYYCQQYHRLPLSFGGGTKVEIK: 3.3 nM (6 of 6 replicates)
* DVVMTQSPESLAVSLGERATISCKSSWSVEYESNNKNSVAWYQQKAGQPPKLLIYHASTREDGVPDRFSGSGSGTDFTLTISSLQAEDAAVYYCQQYHRLPLSFGGGTKVEIK: 3.4 nM (6 of 6 replicates)
* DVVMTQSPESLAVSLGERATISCKVSQSWLMESRNKNSVAWYQQKAGQPPKLLIYNASTRESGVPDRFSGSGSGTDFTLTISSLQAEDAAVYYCQQYHRLPLSFGGGTKVEIK: 19 nM (6 of 6 replicates)
* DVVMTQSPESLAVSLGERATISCKSLWSVLYESANKNSVAWYQQKAGQPPKLLIYHASTREDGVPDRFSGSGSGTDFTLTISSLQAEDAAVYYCQQYHRLPLSFGGGTKVEIK: 22 nM (1 of 6 replicates)
* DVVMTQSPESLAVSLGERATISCKSSQSDLYESRNKNSVAWYQQKAGQPPKLLIYWASTRESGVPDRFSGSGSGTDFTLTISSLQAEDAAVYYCQQYIRLPLSFGGGTKVEIK: 120 nM (2 of 6 replicates)
* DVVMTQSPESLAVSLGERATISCKSSQSVLYESRNKNSEAWYQQKAGQPPKLLIYAASTRESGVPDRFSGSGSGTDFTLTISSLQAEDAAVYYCQQYPRLPLSFGGGTKVEIK: nd (0 of 6 replicates)

2 of these entries, quoted again:

VL	apparent Kd	seen in
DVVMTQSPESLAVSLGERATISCKLPQSVLYESRNKNSVAWYQQKAGQPPKLLIYNASTRLSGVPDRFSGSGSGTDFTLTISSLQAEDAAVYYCQQYHRLPLSFGGGTKVEIK	550 pM	6/6
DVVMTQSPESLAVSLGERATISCKLSQSVEYESRQKNSVAWYQQKAGQPPKLLIYNASTRLSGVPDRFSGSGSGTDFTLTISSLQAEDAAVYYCQQYHRLPLSFGGGTKVEIK	1.6 nM	6/6

The parent sequence was in this pool as ten entries: three were never detected, three once, and four in most replicates, with averages from 2.2 nM to 240 nM. Empty control strains, which show no peptide, gave a signal in 4% of pairings with all light chain designs; the median was 430 nM and 95% of these signals were weaker than 38 nM. No background was subtracted. The authors averaged sequences with at least three values out of six and counted those with two or fewer as poor binders.